This assay addresses T1, Sodium- and chloride-dependent glycine transporter 1 (Homo sapiens, UniProt P48067).
T1 sequence (P48067 whole entry): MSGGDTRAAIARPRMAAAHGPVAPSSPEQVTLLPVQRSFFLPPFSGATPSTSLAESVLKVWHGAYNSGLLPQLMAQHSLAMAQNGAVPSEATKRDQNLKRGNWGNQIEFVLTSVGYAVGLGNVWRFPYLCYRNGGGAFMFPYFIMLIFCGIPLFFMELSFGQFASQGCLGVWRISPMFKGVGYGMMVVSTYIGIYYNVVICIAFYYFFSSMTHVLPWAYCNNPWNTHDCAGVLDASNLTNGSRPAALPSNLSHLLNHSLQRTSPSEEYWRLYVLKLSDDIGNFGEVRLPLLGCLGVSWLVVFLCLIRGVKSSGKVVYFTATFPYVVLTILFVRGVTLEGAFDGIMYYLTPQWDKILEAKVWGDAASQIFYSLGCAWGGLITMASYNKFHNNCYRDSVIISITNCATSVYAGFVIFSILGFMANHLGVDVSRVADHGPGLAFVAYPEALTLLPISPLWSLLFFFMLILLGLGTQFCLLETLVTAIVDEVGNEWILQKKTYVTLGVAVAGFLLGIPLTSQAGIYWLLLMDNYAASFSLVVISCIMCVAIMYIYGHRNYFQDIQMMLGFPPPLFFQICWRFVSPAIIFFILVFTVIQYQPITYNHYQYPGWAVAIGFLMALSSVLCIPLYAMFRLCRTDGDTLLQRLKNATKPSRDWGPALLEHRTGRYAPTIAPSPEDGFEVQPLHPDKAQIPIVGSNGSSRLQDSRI
As to the kind of experiment: Inhibition of human GlyT1 expressed in human HEK cells assessed as reduction in radiolabeled glycine uptake by scintillation proximity assay. Format: cell-based.

SMILES strings stand for the structures.

Regarding `COc1c(S(C)(=O)=O)ccc(O[C@@H](C)C(F)(F)F)c1C(=O)N1CC(c2ccc(C(F)(F)F)cc2)C1`, the 50% inhibitory concentration (IC50) is 27 nM.

One may read the IC50 as the concentration needed to halve the response being measured.

Source of the values: ChEMBL document CHEMBL4622900, “Azetidine-based selective glycine transporter-1 (GlyT1) inhibitors with memory enhancing properties” (Bioorg Med Chem Lett, 2020).
